ChEMBL document CHEMBL2375349, “Discovery of subtype selective muscarinic receptor antagonists as alternatives to atropine using in silico pharmacophore modeling and virtual screening methods” (2013)

The chains behind the UniProt entries cited, without tags or fusion partners. Where a name states a change or a piece, a line headed by the entry shows the natural chain unless it says otherwise.
UniProt P20309, whole entry, looked up: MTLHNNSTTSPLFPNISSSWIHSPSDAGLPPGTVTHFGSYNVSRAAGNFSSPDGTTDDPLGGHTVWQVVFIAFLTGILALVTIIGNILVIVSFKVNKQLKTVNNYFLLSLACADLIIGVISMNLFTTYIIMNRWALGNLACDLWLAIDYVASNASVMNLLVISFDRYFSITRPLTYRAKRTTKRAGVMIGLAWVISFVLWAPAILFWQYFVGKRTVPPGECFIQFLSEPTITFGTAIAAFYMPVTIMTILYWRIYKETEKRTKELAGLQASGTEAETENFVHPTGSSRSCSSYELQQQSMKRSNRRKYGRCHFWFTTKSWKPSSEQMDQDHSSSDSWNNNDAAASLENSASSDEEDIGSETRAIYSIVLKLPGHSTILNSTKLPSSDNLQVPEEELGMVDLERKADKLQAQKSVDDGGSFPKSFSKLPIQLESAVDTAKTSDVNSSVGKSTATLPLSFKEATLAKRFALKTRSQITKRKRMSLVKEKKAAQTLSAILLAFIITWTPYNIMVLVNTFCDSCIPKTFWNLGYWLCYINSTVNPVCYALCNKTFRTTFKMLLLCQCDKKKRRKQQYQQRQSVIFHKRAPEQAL
UniProt P11229: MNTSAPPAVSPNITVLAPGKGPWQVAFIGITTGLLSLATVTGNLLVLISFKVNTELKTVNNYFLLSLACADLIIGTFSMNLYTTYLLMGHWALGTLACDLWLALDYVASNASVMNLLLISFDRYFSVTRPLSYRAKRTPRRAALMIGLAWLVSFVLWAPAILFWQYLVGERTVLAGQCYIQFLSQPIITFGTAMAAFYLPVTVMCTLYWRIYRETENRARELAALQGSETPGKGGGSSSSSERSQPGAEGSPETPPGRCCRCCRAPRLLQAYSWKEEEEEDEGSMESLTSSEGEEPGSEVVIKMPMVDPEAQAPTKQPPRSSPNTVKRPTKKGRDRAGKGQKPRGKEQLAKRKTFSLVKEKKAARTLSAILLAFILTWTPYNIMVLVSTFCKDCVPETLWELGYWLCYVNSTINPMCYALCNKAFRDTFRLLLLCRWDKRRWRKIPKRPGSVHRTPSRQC
UniProt P08172, whole entry, looked up: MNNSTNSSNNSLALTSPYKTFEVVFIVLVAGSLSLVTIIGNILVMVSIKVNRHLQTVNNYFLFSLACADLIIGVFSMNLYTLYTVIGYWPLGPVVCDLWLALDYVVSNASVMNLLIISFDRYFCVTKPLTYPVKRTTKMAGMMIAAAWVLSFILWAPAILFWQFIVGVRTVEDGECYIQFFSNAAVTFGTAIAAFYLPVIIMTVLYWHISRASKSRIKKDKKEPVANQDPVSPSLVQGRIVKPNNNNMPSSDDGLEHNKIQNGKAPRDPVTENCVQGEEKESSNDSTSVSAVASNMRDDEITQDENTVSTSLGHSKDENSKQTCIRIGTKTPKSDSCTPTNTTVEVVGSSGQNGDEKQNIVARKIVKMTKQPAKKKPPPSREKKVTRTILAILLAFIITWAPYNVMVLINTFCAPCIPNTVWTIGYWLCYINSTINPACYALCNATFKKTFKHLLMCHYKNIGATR
UniProt P08173, whole entry, looked up: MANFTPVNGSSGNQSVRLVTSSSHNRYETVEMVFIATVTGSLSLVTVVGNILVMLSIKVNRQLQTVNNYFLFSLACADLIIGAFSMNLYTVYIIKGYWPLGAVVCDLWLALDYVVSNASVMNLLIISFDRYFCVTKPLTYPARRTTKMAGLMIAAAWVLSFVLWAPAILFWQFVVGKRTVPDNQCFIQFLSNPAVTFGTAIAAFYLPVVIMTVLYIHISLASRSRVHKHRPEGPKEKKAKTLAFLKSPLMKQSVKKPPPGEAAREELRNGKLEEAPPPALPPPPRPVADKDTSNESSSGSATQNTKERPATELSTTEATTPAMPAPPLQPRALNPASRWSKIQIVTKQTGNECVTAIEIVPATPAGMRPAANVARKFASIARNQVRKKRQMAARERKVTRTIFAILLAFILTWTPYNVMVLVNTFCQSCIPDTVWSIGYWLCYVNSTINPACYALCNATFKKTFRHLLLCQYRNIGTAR

Tests used:
[1] = Inhibition of muscarinic acetylcholine receptor in rat cortex
[2] = molecular target: Muscarinic acetylcholine receptor M3 (Homo sapiens, UniProt P20309); conditions: cho-k1
[3] = molecular target: T1, Muscarinic acetylcholine receptor M1 (Homo sapiens, UniProt P11229); conditions: cho-k1
[4] = molecular target: Muscarinic acetylcholine receptor M2 (Homo sapiens, UniProt P08172); conditions: cho-k1
[5] = Displacement of [3H] N-methylscopolamine from muscarinic M4 receptor in guinea pig brain homogenate after 30 mins by scintillation counting analysis
[6] = Displacement of [3H] N-methylscopolamine from muscarinic acetylcholine receptor in guinea pig brain homogenate after 30 mins by scintillation counting analysis
[7] = molecular target: Muscarinic acetylcholine receptor M4 (Homo sapiens, UniProt P08173); conditions: cho-k1
[8] = molecular target: T1, Muscarinic acetylcholine receptor M1; test: Displacement of [3H] N-methylscopolamine from human muscarinic M1 receptor after 30 mins by scintillation counting analysis
[9] = Displacement of [3H] N-methylscopolamine from muscarinic M3 receptor in guinea pig brain homogenate after 30 mins by scintillation counting analysis
[10] = Displacement of [3H] N-methylscopolamine from muscarinic M2 receptor in guinea pig brain homogenate after 30 mins by scintillation counting analysis

Row | Structure (SMILES) | Ki [2] | Ki [3] | Ki [4] | Ki [6] | also measured
1 | CCN(CC)CCOC(=O)C1(c2ccccc2)CCCC1 |  |  |  |  | Ki [1]: 7.2 nM
2 | CCN(CC)CCOC(=O)C(CC)(c1ccccc1)c1ccccc1 | 243 nM | 166 nM | 243 nM |  | Ki [5]: 27.3 nM
3 | CCN(CC)CCSC(C(=O)OCC=C(C)C)c1ccccc1 (configuration not stated) |  | 1040 nM |  | 4130 nM | 
4 | CCN(CC)CCOC(=O)C(c1ccccc1)C1(O)CCCCC1 (configuration not stated) | 8.37 nM | 7.75 nM | 15.1 nM | 5.79 nM | Ki [7]: 9.48 nM
5 | C[N+](C)(C)CC#CC(O)(c1ccccc1)C1CCCC1 (configuration not stated) |  |  |  | 1200 nM | 
6 | CCN(CC)CCOC(=O)C1(c2ccc(I)cc2)CCCC1 |  |  |  |  | Ki [1]: 8.6 nM
7 | CC(C)(C)N1CC(C(=O)c2ccccc2)C(=O)C1=O (configuration not stated) |  |  |  | 4100 nM | 
8 | CCN(CC)CCOC(=O)C1(c2ccc([N+](=O)[O-])cc2)CCCC1 |  |  |  |  | Ki [1]: 57 nM
9 | CC[N+](C)(CC)CCOC(=O)C(c1ccccc1)c1ccccc1 | 270 nM | 5.78 nM |  |  | Ki [7]: 1690 nM; Ki [8]: 164 nM
10 | CCN(CC)CCOC(=O)C(c1ccccc1)N1CCCCC1 (configuration not stated) | 186 nM | 271 nM | 1020 nM |  | Ki [9]: 517 nM; Ki [8]: 517 nM; Ki [10]: 517 nM
11 | CC[N+](C)(CC)CCOC(=O)C(O)(c1ccccc1)c1ccccc1 | 4.25 nM | 1.59 nM | 1.54 nM | 0.129 nM | Ki [7]: 13.2 nM
12 | CCN(CC)CCOC(=O)c1ccccc1Sc1ccc(Cl)cc1 | 109 nM | 519 nM | 1340 nM |  | Ki [8]: 2670 nM
13 | CN(C)CCSC(c1ccccc1)c1ccccc1 |  |  |  | 775 nM | 
14 | C[N+](C)(C)CCOC(=O)C(c1ccccc1)c1ccccc1 | 384 nM | 85.7 nM | 348 nM |  | Ki [7]: 676 nM; Ki [8]: 254 nM; Ki [10]: 254 nM
15 | CC[C@H](C)C(C(=O)OCCCN(CC)CC)c1ccccc1 (some centres not stated) | 5.97 nM | 10.7 nM | 116 nM | 21.3 nM | Ki [7]: 89.6 nM
16 | C[n+]1cscc1C(C)(C)OC(=O)c1ccccc1 |  |  |  | 833 nM | 
17 | CCN(CC)CCOC(=O)C(C)(c1ccccc1)c1ccc(O)cc1 (configuration not stated) | 52.2 nM | 0.881 nM | 0.165 nM |  | Ki [7]: 566 nM; Ki [8]: 44 nM; Ki [10]: 44 nM
18 | OC(CCN1CCCCC1)(c1ccccc1)C1CC2C=CC1C2 (configuration not stated) |  |  |  | 10.5 nM | Ki [7]: 32.1 nM
19 | COc1cc(Br)cc(C2Nc3c(c(C)nn3C)C(=O)CS2)c1 (configuration not stated) |  |  |  | 18900 nM | 
20 | OC(CCN1CCCCC1)(c1ccccc1)C1CCCCC1 (configuration not stated) |  |  |  |  | Ki [1]: 1.5 nM
21 | CN1CCC(OC(=O)C(CO)c2cccc(C(F)(F)F)c2)CC1 (configuration not stated) | 11.2 nM |  | 30.8 nM |  | Ki [9]: 14.2 nM; Ki [7]: 285 nM; Ki [5]: 14.2 nM
22 | CCN(CC)CCOC(=O)C1(C2CCCCC2)CCCCC1 |  |  |  |  | Ki [1]: 4.6 nM
23 | COc1ccc(Cl)cc1NS(=O)(=O)c1c(C)cc(C)cc1C |  |  |  | 33100 nM | 
24 | CC[N+](CC)(CC)CCOC(=O)C(c1ccccc1)c1ccccc1 | 0.543 nM | 5.75 nM | 738 nM |  | Ki [8]: 65.5 nM
25 | CCN(CC)CC#CCOC(=O)C(O)(c1ccccc1)C1CCCCC1 (configuration not stated) |  |  |  |  | Ki [1]: 2 nM
26 | CN1CCC(OC(=O)Cc2cccc(C(F)(F)F)c2)CC1 |  |  |  | 1350 nM | 
27 | CCN(CC)CCOC(C)(c1ccccc1)c1ccc(Cl)cc1 (configuration not stated) |  |  |  | 1220 nM | 
